# Test results taken from US20090191253A2 (Creabilis Therapeutics S.P.A., priority 2005, published 2009).
# Target: T1, MAP2K3 (Homo sapiens, UniProt P46734, S218E/T222E)
# T1 sequence (P46734 1-347 S218E/T222E): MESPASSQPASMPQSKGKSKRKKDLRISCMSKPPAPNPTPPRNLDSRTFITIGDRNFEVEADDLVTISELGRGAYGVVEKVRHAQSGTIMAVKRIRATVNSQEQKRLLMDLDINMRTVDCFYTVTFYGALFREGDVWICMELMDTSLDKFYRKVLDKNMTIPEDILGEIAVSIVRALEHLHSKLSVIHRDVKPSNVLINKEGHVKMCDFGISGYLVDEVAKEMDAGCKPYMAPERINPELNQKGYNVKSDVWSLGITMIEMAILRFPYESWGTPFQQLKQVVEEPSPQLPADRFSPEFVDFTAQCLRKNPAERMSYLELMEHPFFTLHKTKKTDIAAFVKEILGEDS
# Experiment: biochemical
structure (smiles),measurement,value
COC(=O)[C@]1(O)CC2O[C@@]1(C)n1c3ccccc3c3c4c(c5c6ccccc6n2c5c31)C(=O)NC4 [K-252a],inhibition at 0.2 µM,100%
